The IC50 is the concentration at which inhibition is half-maximal. A higher IC50 goes with a need for much substance.

By UniProt entry, the sequences of proteins in these tests, tags left out. Residues count along the entry.
UniProt P08709, 61-212 limits assumed: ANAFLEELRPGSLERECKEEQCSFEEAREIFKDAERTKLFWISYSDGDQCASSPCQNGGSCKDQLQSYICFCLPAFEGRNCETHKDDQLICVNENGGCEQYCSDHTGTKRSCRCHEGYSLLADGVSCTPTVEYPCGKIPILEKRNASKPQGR
UniProt P08709, 213-466 limits assumed: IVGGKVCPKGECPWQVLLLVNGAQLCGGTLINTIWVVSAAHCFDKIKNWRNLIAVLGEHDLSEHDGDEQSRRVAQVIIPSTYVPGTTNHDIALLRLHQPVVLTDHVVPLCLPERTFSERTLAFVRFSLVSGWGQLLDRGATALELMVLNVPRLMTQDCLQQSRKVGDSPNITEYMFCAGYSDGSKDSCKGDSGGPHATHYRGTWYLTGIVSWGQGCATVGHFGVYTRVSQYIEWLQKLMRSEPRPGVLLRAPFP

From patent publication US7164002B2, “FVIIa antagonists” (Genentech, Inc., priority 2002, dated 2007) come the findings set out here.

The assay addresses TF-FVIIa (Homo sapiens, UniProt P08709). The assay can be described thus: Inhibition of TF-FVIIa catalyzed activation of FX. The assay is classed as biochemical. The note with it: 300 pM relipidated TF1-243, 20 pM FVIIa, 165 nM FX, 25° C.

With Z-GGSGGDDDDK-EEWEVLCWTWETCER [Z-A-183], the IC50 was determined as 0.66 nM.
